According to article PMC9306553 (Angewandte Chemie (International Ed. in English), 2022):

Experiments:
Experiment in all cases: cell-based
CCR9 [1] = molecular target: T1, CCR9 (Homo sapiens, UniProt P51686); details: IC50 β-arrestin2 recruitment, HEK293T cells, stimulated with CCL25 31.6 nM
T1 sequence (P51686 1-369): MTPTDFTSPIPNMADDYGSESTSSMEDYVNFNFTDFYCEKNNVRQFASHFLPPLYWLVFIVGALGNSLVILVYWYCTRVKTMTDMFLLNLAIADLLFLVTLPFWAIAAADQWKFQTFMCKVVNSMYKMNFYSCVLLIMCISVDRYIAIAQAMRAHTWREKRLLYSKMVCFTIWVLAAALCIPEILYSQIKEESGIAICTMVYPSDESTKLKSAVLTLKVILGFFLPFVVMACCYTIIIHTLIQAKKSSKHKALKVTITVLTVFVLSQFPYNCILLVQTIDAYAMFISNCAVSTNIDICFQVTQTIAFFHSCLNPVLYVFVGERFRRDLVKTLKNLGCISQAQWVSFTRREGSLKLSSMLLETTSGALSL

CCR9 [2] = molecular target: T2, CCR9 (Homo sapiens, UniProt P51686); details: HEK293T cells, stimulated with CCL25 31.6 nM
T2 sequence (P51686 1-357 isoform P51686-2): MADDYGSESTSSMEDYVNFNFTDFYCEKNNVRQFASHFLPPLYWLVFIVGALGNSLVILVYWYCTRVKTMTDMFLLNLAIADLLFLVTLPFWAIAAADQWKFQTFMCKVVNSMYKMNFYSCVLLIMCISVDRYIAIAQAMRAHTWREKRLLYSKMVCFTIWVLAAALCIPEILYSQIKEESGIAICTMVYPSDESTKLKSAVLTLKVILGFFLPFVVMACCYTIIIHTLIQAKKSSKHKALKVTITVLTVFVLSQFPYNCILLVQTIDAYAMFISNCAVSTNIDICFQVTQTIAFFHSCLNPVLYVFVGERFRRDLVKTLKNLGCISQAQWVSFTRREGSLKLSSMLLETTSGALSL

CCR9 [3] = molecular target: T2, CCR9; details: tracer 3a 120 nM, live HEK293T cells expressing CCR9_Nluc

`CC(C)(C)c1ccc(S(=O)(=O)Nc2ccc(Cl)cc2-c2cncnc2N)cc1` [compound 12] gave an IC50 (CCR9 [1]) of 1.93 nM, an IC50 (CCR9 [2]; IC50 Gαo activation) of 1.92 nM and an IC50 (CCR9 [2]; pIC50 Gαo activation, mean±SEM) of 1.91 nM. The Ki (CCR9 [3]; Ki NanoBRET (in cells)) was 1.91 nM and the Ki (CCR9 [3]; pKi NanoBRET (in cells), mean±SEM) was 1.38 nM.
